Laboratory results from patent US11673889B2, “Substituted imidazo[4,5-c][1,8]naphthyridines as phosphodiesterase inhibitors” (Nanjing Zhengxiang Pharmaceuticals Co., Ltd., priority 2019, dated 2023).
pIC50: −log10 of the molar value.

Target: T1, ENPP-1, MDA-MB-231 cells (Homo sapiens, UniProt P22413)
T1 sequence (P22413 1-925): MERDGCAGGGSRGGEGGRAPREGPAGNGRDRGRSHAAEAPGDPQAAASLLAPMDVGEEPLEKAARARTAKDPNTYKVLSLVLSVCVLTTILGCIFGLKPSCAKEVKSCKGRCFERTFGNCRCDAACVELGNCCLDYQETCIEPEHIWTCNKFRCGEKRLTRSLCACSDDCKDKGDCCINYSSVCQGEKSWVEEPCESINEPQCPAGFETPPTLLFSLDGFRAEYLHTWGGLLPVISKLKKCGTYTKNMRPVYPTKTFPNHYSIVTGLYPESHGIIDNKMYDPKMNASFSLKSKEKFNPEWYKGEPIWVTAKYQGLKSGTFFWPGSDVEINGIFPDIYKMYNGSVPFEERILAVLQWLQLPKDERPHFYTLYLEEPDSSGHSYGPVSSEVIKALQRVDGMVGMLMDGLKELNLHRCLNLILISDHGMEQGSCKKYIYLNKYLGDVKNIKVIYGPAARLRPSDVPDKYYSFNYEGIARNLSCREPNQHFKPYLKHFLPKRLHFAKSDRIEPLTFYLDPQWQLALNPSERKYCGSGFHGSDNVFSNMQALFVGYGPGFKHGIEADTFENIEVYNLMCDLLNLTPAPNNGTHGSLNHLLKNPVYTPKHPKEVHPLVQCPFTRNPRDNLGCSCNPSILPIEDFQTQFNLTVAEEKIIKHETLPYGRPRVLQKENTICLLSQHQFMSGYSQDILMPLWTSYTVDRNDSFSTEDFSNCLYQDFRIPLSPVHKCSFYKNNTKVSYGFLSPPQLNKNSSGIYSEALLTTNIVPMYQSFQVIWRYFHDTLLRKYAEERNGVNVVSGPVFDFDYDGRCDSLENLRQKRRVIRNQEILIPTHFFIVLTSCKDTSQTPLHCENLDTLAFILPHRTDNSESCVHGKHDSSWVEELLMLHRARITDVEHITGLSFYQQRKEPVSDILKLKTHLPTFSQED
Assay: cell-based
Description: ENPP-1 were mainly expressed on the surface of cell membrane where it hydrolytes 2′3′-cGAMP to generate 5′-GMP and 5′-AMP. ENPP-1 also has the ability to hydrolyzes artificial phosphoric acid ester TMP-pNP to nucleotide-5′-monophosphate and p-nitrophcnol there, which is a chromogenic product.
8 point of different concentrations of each inhibitor were prepared with the final assay concentrations starting at 20 μM. 3× series dilution by DMEM medium without FBS was applied. Prior to adding inhibitors, 75000 cells per well were incubated at 37° C., 5% CO2 in DMEM for 24 hours. After removing the supernatant medium, 50 μL inhibitor solution was added into each well with cultured cells and incubate at 37° C., 5% CO2 for 60 minutes.
The IC50 values for percent inhibition versus compound concentration are determined by fitting the inhibition curves using a four-parameter variable slope model in GraphPad Prism® 8.

## COc1ccc2c(ncc3[nH]c(=O)n(Cc4ccc(P(=O)(O)OC)c(F)c4)c32)n1 [Compound 127, methyl hydrogen (2-fluoro-4-((7-methoxy-2-oxo-2,3-dihydro-1H-imidazo[4,5-c][1,8]naphthyridin-1-yl)methyl)phenyl)phosphonate]
  pIC50: 7.09
MDA-MB-231, read-out: % Inhibition (at 20 μM)
  inhibition at 20 µM: 78%
